System: rats
Assay: Repeat dose I.V. rat study with GMP grade galactomannan (Example 8)
Format: in vivo
Procedure: Studies with repeat dose I.V. in rats with up to 52-day recovery period was performed using filtered GMP grade galactomannan material containing 48 or 96 mg/kg (288 or 576 mg/m2). Five animals of each sex were sacrificed at days 5, 28 and 56.
The galactomannan of the invention has minimal histological effects with only 1/30 rats injected with 48 mg/kg dose of the GMP galactomannan clinical solution having granulomatous inflammation. […] It was concluded that galactomannan clinical solutions, up to a dose of 15 mg/kg (555 mg/m2; 9 mg/mL), is safe for human use and poses no undue risk to health.

In the case of “(((1,4)-linked β-D-mannopyranose)17-((1,6)-linked-β-D-galactopyranose)10)12) [GM]”, the “histologic findings in the lung, sacrifice at day 5” value (96 mg/kg IV for four consecutive days) is reported as “low incidence of trace-level granulomatous inflammation of the lung”, the “histologic findings in the lungs, sacrifice on day 28” value (male rats, 96 mg/kg) is reported as “increased incidence of trace-level interstitial inflammation in the lungs” and the “histologic findings in the lungs, sacrifice on day 56” value (male rats, 96 mg/kg) is reported as “increased incidence of trace-level alveolar macrophage accumulation”.

— patent publication US7893252B2, “Selectively depolymerized galactomannan polysaccharide” (priority 2003, dated 2011)
